Biological target: RAF proto-oncogene serine/threonine-protein kinase (Homo sapiens, UniProt P04049)
Experiment: Enzymatic RAF1 Kinase: Small molecule inhibition of RAF1 kinases was measured using ADP-Glo assay. In the assay, ADP is converted to ATP in the presence of test kinase and substrate, resulting in luciferase reaction and luminescent readout with light generated proportional to the relative kinase activity. Compounds diluted in DMSO were used in 10-point, 3-fold dose curve for both assays. Final concentrations of 3 nM RAF1 (CarnaBio, Cat. 09-125) and 30 nM MEK1 substrate (Millipore, Cat. 14-420) were incubated with 3 μM ATP, 10 mM MgCl2, 0.003% Brij-35, 2 mM DTT, 0.05% BSA, 1 mM EGTA, and 50 mM HEPES for 90 minutes at room temp prior to addition of ADP-Glo reagent (Promega, Cat. V9102) for 40 minutes, and detection reagent for 45 minutes. Luminescence was read on an Envision plate reader (PerkinElmer) and percent remaining activity was used to calculate IC50 using a four-parameter fit model using Dotmatics Knowledge Solutions Studies curve fitting (Dotmatics, Bishops Stortford, UK, CM23).

SMILES | IC50
Cc1ccc(NC(=O)N2CC[C@@H](CC(F)(F)F)C2)cc1-c1cc(N2CCOCC2)nc(N2C[C@@H](N)CC2=O)c1 | < 10 nM
Cc1ccc(NC(=O)N2CC[C@@H](CC(F)(F)F)C2)cc1-c1cc(N2CCOCC2)nc(N2C[C@H](N)CC2=O)c1 | < 10 nM

From ChEMBL document CHEMBL5728676, “Inhibitors of RAF kinases” (2021)
